Values quoted from earlier work in patent US12139729B2, “Neurodegenerative disorders” (priority 2013, dated 2024).

Conditions: cited from earlier work

## COc1ccc2c3c1O[C@H]1C[C@@H](O)C=C[C@@]31CCN(C)C2 [Galanthamine]
  CNS permeability (Table 3 feature): Low permeability CNS
